These results are taken from US9238656B2, “Imidazo[4,5-b]pyridine derivatives as ALK and JAK modulators for the treatment of proliferative disorders” (priority 2012, dated 2016).

By UniProt entry, the sequences of proteins in these tests, tags left out. Where a name states a change or a piece, a line headed by the entry shows the natural chain unless it says otherwise.
UniProt O60674: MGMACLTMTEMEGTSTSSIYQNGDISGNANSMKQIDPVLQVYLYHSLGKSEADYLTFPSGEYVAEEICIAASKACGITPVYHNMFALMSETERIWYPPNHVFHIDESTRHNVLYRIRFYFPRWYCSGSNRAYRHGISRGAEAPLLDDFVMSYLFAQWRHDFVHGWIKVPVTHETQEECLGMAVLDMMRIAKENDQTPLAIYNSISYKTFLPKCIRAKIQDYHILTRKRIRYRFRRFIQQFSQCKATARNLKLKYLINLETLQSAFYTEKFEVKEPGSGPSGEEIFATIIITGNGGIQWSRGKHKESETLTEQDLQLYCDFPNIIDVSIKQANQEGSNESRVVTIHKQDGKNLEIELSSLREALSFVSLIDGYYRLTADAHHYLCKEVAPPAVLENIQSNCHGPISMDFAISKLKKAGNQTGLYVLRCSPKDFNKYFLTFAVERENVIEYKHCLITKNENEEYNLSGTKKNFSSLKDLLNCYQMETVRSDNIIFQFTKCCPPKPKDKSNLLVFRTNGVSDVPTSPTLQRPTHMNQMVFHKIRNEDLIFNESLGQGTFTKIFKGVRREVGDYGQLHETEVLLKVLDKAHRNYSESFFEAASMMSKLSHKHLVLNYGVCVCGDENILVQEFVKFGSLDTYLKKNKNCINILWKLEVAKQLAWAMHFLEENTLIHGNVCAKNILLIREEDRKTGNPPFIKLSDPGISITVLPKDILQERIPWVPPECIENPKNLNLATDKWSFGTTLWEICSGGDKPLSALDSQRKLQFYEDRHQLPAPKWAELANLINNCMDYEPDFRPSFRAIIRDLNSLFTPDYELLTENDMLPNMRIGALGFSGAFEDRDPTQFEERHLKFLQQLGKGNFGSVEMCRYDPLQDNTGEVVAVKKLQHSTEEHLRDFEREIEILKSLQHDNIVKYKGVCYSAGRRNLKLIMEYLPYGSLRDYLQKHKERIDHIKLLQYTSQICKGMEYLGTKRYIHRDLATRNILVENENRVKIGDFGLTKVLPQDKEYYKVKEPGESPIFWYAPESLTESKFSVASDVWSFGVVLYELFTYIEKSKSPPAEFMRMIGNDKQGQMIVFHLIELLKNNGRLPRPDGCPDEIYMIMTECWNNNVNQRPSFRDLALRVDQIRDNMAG

This assay deals with baculovirus-expressed JAK2 kinase (Homo sapiens, UniProt O60674). The experiment in a line: biochemical. Conditions: JAK2 Potency. As for the experimental part:
Compounds were tested for their ability to inhibit the kinase activity of baculovirus-expressed JAK2 kinase using the time-resolved fluorescence (TRF) detection system. […] The plates were coated with 100 μL/well of 10 μg/mL Neutravidin (Pierce #31000, Rockford, Ill.) in TBS at 37° C. for 2 h, followed by 100 μL/well of 1 μg/mL 15-mer peptide substrate (biotinyl-amino-hexanoyl-[…]-amide, Infinity Biotech Research and Resource, Aston, Pa.) at 37° C. for 1 h. […] Enzyme (15 ng/mL JAK2) was added and the reaction was allowed to proceed at room temperature for 20 min. […] Inhibition data were analyzed using ActivityBase (IDBS, Guilford, UK). IC50 values were calculated by plotting percent inhibition versus log10 of the concentration of compound and fitting to the nonlinear regression sigmoidal dose-response (variable slope) equation in XLFit (IDBS, Guilford, UK).

A value given as a limit tells only on which side of the number the result lay.

Molecule `COc1cc(CN2CCCC2)ccc1-c1nc2c(N[C@H]3[C@@H](C(N)=O)[C@@H]4C=C[C@H]3C4)c(Cl)cnc2[nH]1` [Compound XLI] came in with a concentration for half-maximal inhibition (IC50) below 100 nM.
